Earlier results on one compound are cited in patent US11634743B2, “Coupled, self-sufficient biotransformation of chenodeoxcholic acid to ursodeoxycholic acid and novel enzyme mutants applicable in said process” (Pharmazell GmbH, priority 2016, dated 2023).

The chains behind the UniProt entries cited, without tags or fusion partners.
UniProt A4ECA9, whole entry: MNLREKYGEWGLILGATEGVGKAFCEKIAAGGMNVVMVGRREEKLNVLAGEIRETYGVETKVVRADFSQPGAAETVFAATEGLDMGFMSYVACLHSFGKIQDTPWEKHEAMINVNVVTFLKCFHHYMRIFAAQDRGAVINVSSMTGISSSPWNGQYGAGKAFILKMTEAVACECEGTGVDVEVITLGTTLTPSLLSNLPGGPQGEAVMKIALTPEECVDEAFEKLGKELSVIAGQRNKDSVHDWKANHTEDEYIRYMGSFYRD

The target in the data set is 7β-HSDH obtainable from Collinsella aerofaciens DSM 3979 (Collinsella aerofaciens, UniProt A4ECA9). The following applies: cited from earlier work.

For the compound `NC(=O)C1=CN([C@@H]2O[C@H](COP(=O)(O)OP(=O)(O)OC[C@H]3O[C@@H](n4cnc5c(N)ncnc54)[C@H](OP(=O)(O)O)[C@@H]3O)[C@@H](O)[C@H]2O)C=CC1`, the kcat is 1033.44 1 μmol/(μmol × min). Besides, the Vmax (1 U = 1 μmol/min) was 33.44 U/mg protein.
